This is an account of results in US20260124309A1, “STAT6 DEGRADERS AND USES THEREOF” (Kymera Therapeutics, Inc., priority 2023, published 2026).

Chains of the proteins cited; added tags and fusions are not shown. Residues count along the entry.
UniProt P42226, 123-632 limits assumed: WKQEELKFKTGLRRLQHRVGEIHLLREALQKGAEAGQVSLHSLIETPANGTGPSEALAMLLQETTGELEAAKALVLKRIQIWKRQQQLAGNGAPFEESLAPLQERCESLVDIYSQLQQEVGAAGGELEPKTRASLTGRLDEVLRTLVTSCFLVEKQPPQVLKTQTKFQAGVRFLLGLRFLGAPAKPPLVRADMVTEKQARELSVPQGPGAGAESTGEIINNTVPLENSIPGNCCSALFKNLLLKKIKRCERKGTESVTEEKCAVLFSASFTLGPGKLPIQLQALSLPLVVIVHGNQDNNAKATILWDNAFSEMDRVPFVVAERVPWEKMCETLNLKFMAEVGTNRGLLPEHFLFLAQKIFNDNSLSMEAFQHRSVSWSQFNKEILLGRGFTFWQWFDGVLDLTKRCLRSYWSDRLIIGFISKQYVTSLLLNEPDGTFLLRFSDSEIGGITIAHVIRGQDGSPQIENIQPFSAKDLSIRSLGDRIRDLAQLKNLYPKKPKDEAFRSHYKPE
UniProt P42226, whole entry: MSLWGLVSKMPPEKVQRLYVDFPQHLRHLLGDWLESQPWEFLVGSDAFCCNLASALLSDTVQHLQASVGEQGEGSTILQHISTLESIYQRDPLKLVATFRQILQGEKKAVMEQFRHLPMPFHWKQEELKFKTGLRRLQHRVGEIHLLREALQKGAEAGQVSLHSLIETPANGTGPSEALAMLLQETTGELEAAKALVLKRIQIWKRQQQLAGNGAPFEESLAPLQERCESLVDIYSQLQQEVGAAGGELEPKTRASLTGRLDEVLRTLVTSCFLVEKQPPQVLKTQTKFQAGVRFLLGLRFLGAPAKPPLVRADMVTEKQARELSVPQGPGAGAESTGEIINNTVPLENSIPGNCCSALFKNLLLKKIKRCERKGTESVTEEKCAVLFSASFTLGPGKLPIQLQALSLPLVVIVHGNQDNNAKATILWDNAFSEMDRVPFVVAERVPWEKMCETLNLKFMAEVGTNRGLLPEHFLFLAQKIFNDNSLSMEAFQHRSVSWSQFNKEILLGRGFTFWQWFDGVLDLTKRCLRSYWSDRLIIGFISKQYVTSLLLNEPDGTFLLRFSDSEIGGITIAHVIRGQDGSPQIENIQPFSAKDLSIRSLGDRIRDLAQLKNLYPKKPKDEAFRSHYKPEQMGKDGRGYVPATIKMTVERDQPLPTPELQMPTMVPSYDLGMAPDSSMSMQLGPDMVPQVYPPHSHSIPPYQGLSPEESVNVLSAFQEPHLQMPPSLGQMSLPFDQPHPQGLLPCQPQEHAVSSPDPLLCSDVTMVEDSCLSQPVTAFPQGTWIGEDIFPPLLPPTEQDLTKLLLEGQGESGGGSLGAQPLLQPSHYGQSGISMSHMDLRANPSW

The target in test [1] is biotinylated truncated STAT6 (123-632)-avi (Homo sapiens, UniProt P42226). The experiment in a line: STAT6 HTRF binding assay. As to conditions: read-out: STAT6 HTRF: Average IC50; HTRF binding, 0.15 nM biotinylated truncated STAT6 (123-632)-avi, 20 nM fluorescein-labeled probe. On the procedure: HTRF binding assays were performed using 0.15 nM biotinylated truncated STAT6 (123-632)-avi purified from E. coli, 1× Streptavidin-terbium (CisBio) prepared by mixing SA-Tb in PPI detection buffer (CisBio), 20 nM proprietary fluorescein-labeled probe, and test compounds in assay buffer consisting of 50 mM HEPES-Na pH 7.5, 100 mM NaCl, 1 mM EDTA, 2 mM DTT, 0.1% Tween-20 with a final volume of 20 uL. Compound stocks were dissolved at 10 mM in 100% DMSO and 11 point titration with 3 fold serial dilution was performed in white, opaque 384 well microplates. Reaction plates were incubated at room temperature for 30 minutes. Plates were centrifuged at low rpm for 5 mins, and the ratio of fluorescence intensities were measured at emission wavelengths for fluorescein acceptor (520 nm) and terbium donor (495 nm) on Envision Plate reader. % Inhibition was calculated from the 520/495 ratio generated by using proprietary positive control compound for 100% inhibition and DMSO only reactions for 0% inhibition. Data was processed and dose response curves were generated using GraphPad Prism to determine the concentration required for inhibiting 50% of the HTRF signal (IC50).
The letter codes for IC50 (μM) include: A (<0.1 μM); B (0.1-1 μM); C (>1-10 μM); D (>10-100 μM); E (>100 μM); and F (not tested).

The target in a further test is STAT6 (Homo sapiens, UniProt P42226). Put plainly: STAT6 MSD degradation in A549 cells. As to the method: Degradation of STAT6 in cells was quantitatively measured using Meso Scale Discovery (MSD) technology. A549 cells were seeded in 96-well plates with a density of 1.5×10e4 to 5×10e5 cells per well in 100 μl fresh media. Compounds were then added to the assay plates with a final top concentration of up to 10 uM in a 1:3 dilution series with total of 9 doses. The assay plates were then incubated for 4 to 24 hours at 37° C. under 5% CO2. The assay plates were then centrifuged for 5 minutes and the cell pellets were treated with 100 μl/well RIPA lysis buffer (Boston Bioproducts, BP-115D) with protease and phosphatase inhibitors (Roche, 05892791001 and 04906837001). To prepare the MSD assay plates (MSD, L15XA), the plates were coated with the capture antibody (Abnova, H00006778) in PBS, at 40 μl/well. The plates were then incubated overnight at 4° C., washed 1 time with 150 μl/well TBST buffer (Cell Signaling Technology, #9997S) and blocked with 150 μl/well blocking buffer (MSD, R93BA-4). Cell lysates were then added to MSD assay plates and the plates were incubated at room temperature for 1 hour. The plates were then washed 3 times with 150 μl/well TBST buffer and 25 μl/well primary detection antibody (Cell Signaling Technology, #5397S). The assay plates were then incubated at room temperature for 1 hour, washed 3 times with 150 μl/well TBST buffer, and 25 μl/well secondary detection antibody, SULFO-TAG anti-rabbit antibody (MSD, R32AB-1) were added. The assay plates were then incubated at room temperature for 1 hour, washed 3 times with 150 μl/well TBST buffer, and 150 μl/well MSD reading buffer (MSD, R92TC-2) were added. The plates were then analyzed by an MSD reader. The data was analyzed by GraphPad Prism and the dose dependent STAT6 degradation was fit using the four-parameter inhibitor vs. response nonlinear regression.
The letter codes for DC50 (nM) include: A (<1 nM); B (1-10 nM); C (>10-100 nM); D (>100-1000 nM); E (>1000 nM); and F (not tested). The letter codes for Dmax (oo) include: A (>90%); B (>70-90%); C (>50-70%); D ([…]); and F (not tested).

Take `COc1cc(N2CCN(CCOCC[C@@H]3CN(c4cc(N5CCCCC5)ccn4)[C@@H]4CCCN(c5cccc(F)c5)[C@H]34)CC2)ccc1-c1cc(C2=CCCN(C(=O)CCn3ccnn3)C2)c(F)c2[nH]c(C(=O)N(C)C)cc12` (single isomer, unassigned): the IC50 in test [1] was less than 100 nM.
The same measure, in the same setting: to `COc1cc(N2CCN(CCOCCOCCOCCOCCOCCc3ccc(C(=O)c4[nH]cc(C(=O)N[C@@H](CC(N)=O)c5cccc(Cl)c5)c4-c4c(F)ccc(F)c4C)cc3)CC2)ccc1-c1cc(C2=CCCN(C(=O)CCn3ccnn3)C2)c(F)c2[nH]c(C(=O)N(C)C)cc12` belongs less than 100 nM.
Same read-out and setting: the value for `COc1cc(N2CCN(CCOCCOCC[C@H]3CN(c4cc(N5CCCCC5)ccn4)[C@H]4CCCN(c5cccc(F)c5)[C@@H]34)CC2)ccc1-c1cc(C2=CCCN(C(=O)CCn3ccnn3)C2)c(F)c2[nH]c(C(=O)N(C)C)cc12` (single isomer, unassigned) was less than 100 nM; that for `COc1cc(N2CCN(C3CCN(CC#Cc4ccc(C(=O)c5c(-c6c(F)ccc(F)c6C)c(C(=O)N[C@@H](CS(C)(=O)=O)c6cccc(Cl)c6)cn5C)cc4)CC3)CC2)ccc1-c1cc(C2=CCCN(C(=O)CCn3ccnn3)C2)c(F)c2[nH]c(C(=O)N(C)C)cc12` was less than 100 nM.
As to `COc1cc(N2CCN(CCCCCCCCc3ccc(C(=O)c4c(-c5c(F)ccc(F)c5C)c(C(=O)N[C@@H](CS(C)(=O)=O)c5cccc(Cl)c5)cn4C)cc3)CC2)ccc1-c1cc(C2=CCCN(C(=O)CCn3ccnn3)C2)c(F)c2[nH]c(C(=O)N(C)C)cc12`, the IC50 in test [1] is less than 100 nM.
Consider `COc1cc(N2CCN(CCOCC[C@H]3CN(c4cc(N5CCCCC5)ccn4)[C@H]4CCCN(c5cccc(F)c5)[C@@H]34)CC2)ccc1-c1cc(C2=CCCN(C(=O)CCn3ccnn3)C2)c(F)c2[nH]c(C(=O)N(C)C)cc12` (single isomer, unassigned), for which the IC50 in test [1] was less than 100 nM.
Same read-out and setting: the value for `COc1cc(N2CCN(CCCC3CCN(c4ccnc(N5CC[C@@H]6[C@H]5CCCN6c5cccc(F)c5)c4)CC3)CC2)ccc1-c1cc(C2=CCCN(C(=O)CCn3ccnn3)C2)c(F)c2[nH]c(C(=O)N(C)C)cc12` was less than 100 nM; that for `COc1cc(N2CCN(CCOCC[C@@H]3CN(c4cc(N5CCCCC5)ccn4)[C@H]4CCCN(c5cccc(F)c5)[C@@H]34)CC2)ccc1-c1cc(C2=CCCN(C(=O)CCn3ccnn3)C2)c(F)c2[nH]c(C(=O)N(C)C)cc12` (single isomer, unassigned) was less than 100 nM; that for `COc1cc(N2CCN(CCOCCOCC[C@@H]3CN(c4cc(N5CCCCC5)ccn4)[C@@H]4CCCN(c5cccc(F)c5)[C@H]34)CC2)ccc1-c1cc(C2=CCCN(C(=O)CCn3ccnn3)C2)c(F)c2[nH]c(C(=O)N(C)C)cc12` (single isomer, unassigned) was less than 100 nM.
The same measure, in the same setting: the value for `COc1cc(N2CCN(CCOCCOCCOCCOCCC3CCCCN3c3ccnc(N4CC[C@@H]5[C@H]4CCCN5c4cccc(F)c4)c3)CC2)ccc1-c1cc(C2=CCCN(C(=O)CCn3ccnn3)C2)c(F)c2[nH]c(C(=O)N(C)C)cc12` (stereo partly drawn) was less than 100 nM.
Turning to `COc1cc(N2CCN(CCOCC[C@H]3CN(c4cc(N5CCCCC5)ccn4)[C@@H]4CCCN(c5cccc(F)c5)[C@H]34)CC2)ccc1-c1cc(C2=CCCN(C(=O)CCn3ccnn3)C2)c(F)c2[nH]c(C(=O)N(C)C)cc12` (single isomer, unassigned), the IC50 in test [1] is less than 100 nM.
In the case of `COc1cc(N2CCN(CCCCCCCCCCCN(C(=O)[C@H]3CCCN(c4cncc5ccccc45)C3)c3ccc(=O)n(CC(=O)O)c3)CC2)ccc1-c1cc(C2=CCCN(C(=O)CCn3ccnn3)C2)c(F)c2[nH]c(C(=O)N(C)C)cc12`, the “STAT6 MSD degradation Dmax % 24 h” value at STAT6 is on record as “B (B (>70-90%))”. Further, at STAT6 (read-out: STAT6 MSD degradation DC50 (nM) 24 h), the DC50 was 10 to 100 nM.
`COc1cc(N2CCN(CCOCCCc3ccc(C(=O)c4[nH]cc(C(=O)N[C@@H](CC(N)=O)c5cccc(Cl)c5)c4-c4c(F)ccc(F)c4C)cc3)CC2)ccc1-c1cc(C2=CCCN(C(=O)CCn3ccnn3)C2)c(F)c2[nH]c(C(=O)N(C)C)cc12`: in test [1], the IC50 is less than 100 nM.
On to `COc1cc(N2CCN(CCCCCC[C@@H]3[C@@H]4C[C@H]3CN(c3ccnc(N5CC[C@@H]6[C@H]5CCCN6c5cc(F)cc(COC(N)=O)c5)c3)C4)CC2)ccc1-c1cc(C2=CCCN(C(=O)CCn3ccnn3)C2)c(F)c2[nH]c(C(=O)N(C)C)cc12`, for which, in test [1], the IC50 is less than 100 nM.
With `COc1cc(N2CCN(CCOCCOCCOCCOCCc3c(N4CCCCC4)ccnc3N3CC[C@@H]4[C@H]3CCCN4c3cccc(F)c3)CC2)ccc1-c1cc(C2=CCCN(C(=O)CCn3ccnn3)C2)c(F)c2[nH]c(C(=O)N(C)C)cc12`, in test [1], the IC50 is less than 100 nM.
Turning to `COc1cc(N2CCN(CCCCCCCCCCCCc3ccc(C(=O)c4c(-c5c(F)ccc(F)c5C)c(C(=O)N[C@@H](CS(C)(=O)=O)c5cccc(Cl)c5)cn4C)cc3)CC2)ccc1-c1cc(C2=CCCN(C(=O)CCn3ccnn3)C2)c(F)c2[nH]c(C(=O)N(C)C)cc12`, the IC50 in test [1] is less than 100 nM.
Take `COc1cc(N2CCN(CCCCCC[C@H]3[C@@H]4C[C@H]3CN(c3ccnc(N5CC[C@@H]6[C@H]5CCCN6c5cc(F)cc(COC(N)=O)c5)c3)C4)CC2)ccc1-c1cc(C2=CCCN(C(=O)CCn3ccnn3)C2)c(F)c2[nH]c(C(=O)N(C)C)cc12`: the IC50 in test [1] was less than 100 nM.
For `COc1cc(N2CCN(CCOCCOCCOc3ccc(C(=O)c4c(-c5c(F)ccc(F)c5C)c(C(=O)N[C@@H](CS(C)(=O)=O)c5cccc(Cl)c5)cn4C)cc3)CC2)ccc1-c1cc(C2=CCCN(C(=O)CCn3ccnn3)C2)c(F)c2[nH]c(C(=O)N(C)C)cc12`, the IC50 in test [1] is less than 100 nM.
On the same count and under the same terms, to `COc1cc(N2CCN(CCCCCCCCC3CCN(c4ccnc(N5CC[C@@H]6[C@H]5CCCN6c5cccc(F)c5)c4)CC3)CC2)ccc1-c1cc(C2=CCCN(C(=O)CCn3ccnn3)C2)c(F)c2[nH]c(C(=O)N(C)C)cc12` belongs less than 100 nM; to `COc1cc(N2CCN(CCCN(C)CCC3CCN(c4ccnc(N5CC[C@@H]6[C@H]5CCCN6c5cccc(F)c5)c4)CC3)CC2)ccc1-c1cc(C2=CCCN(C(=O)CCn3ccnn3)C2)c(F)c2[nH]c(C(=O)N(C)C)cc12`, less than 100 nM.
Take `COc1cc(N2CCN(CCOCCOCCOCCOCCc3ccc(C(=O)c4[nH]cc(C(=O)N[C@@H](CC(N)=O)c5cccc(Cl)c5)c4-c4c(F)ccc(F)c4C)cc3)CC2)ccc1-c1cc(C2=CCCN(C(=O)CCn3ccnn3)C2)c(F)c2[nH]c(C(=O)N(C)C)cc12`: in test [1], the IC50 was less than 100 nM.
Still for that read-out and setting: the value for `COc1cc(N2CCN(CCCCCCCCc3ccc(C(=O)c4c(-c5c(F)ccc(F)c5C)c(C(=O)N[C@@H](CC#N)c5cccc(Cl)c5)cn4C)cc3)CC2)ccc1-c1cc(C2=CCCN(C(=O)CCn3ccnn3)C2)c(F)c2[nH]c(C(=O)N(C)C)cc12` was less than 100 nM.
The same measure, in the same setting: the value for `COc1cc(N2CCN(CCCCCCC#Cc3ccc(C(=O)c4c(-c5c(F)ccc(F)c5C)c(C(=O)N[C@@H](CS(C)(=O)=O)c5cccc(Cl)c5)cn4C)cc3)CC2)ccc1-c1cc(C2=CCCN(C(=O)CCn3ccnn3)C2)c(F)c2[nH]c(C(=O)N(C)C)cc12` was less than 100 nM; that for `COc1cc(N2CCN(CCCCCCC3CCN(c4ccnc(N5CC[C@@H]6[C@H]5CCCN6c5cccc(F)c5)c4)CC3)CC2)ccc1-c1cc(C2=CCCN(C(=O)CCn3ccnn3)C2)c(F)c2[nH]c(C(=O)N(C)C)cc12` was less than 100 nM; that for `COc1cc(N2CCN(CCOCCOCCOCCC3CCN(c4ccnc(N5CC[C@@H]6[C@H]5CCCN6c5cccc(F)c5)c4)CC3)CC2)ccc1-c1cc(C2=CCCN(C(=O)CCn3ccnn3)C2)c(F)c2[nH]c(C(=O)N(C)C)cc12` was less than 100 nM.
On the same count and under the same terms, the value for `COc1cc(N2CCN(CCOCCOCCc3ccc(C(=O)c4[nH]cc(C(=O)NC(CC(N)=O)c5cccc(Cl)c5)c4-c4c(F)ccc(F)c4C)cc3)CC2)ccc1-c1cc(C2=CCCN(C(=O)CCn3ccnn3)C2)c(F)c2[nH]c(C(=O)N(C)C)cc12` (stereo not drawn) was less than 100 nM.
